# Molecular target: T1, Lysosomal protective protein (Homo sapiens, UniProt P10619)
# T1 sequence (P10619 whole entry): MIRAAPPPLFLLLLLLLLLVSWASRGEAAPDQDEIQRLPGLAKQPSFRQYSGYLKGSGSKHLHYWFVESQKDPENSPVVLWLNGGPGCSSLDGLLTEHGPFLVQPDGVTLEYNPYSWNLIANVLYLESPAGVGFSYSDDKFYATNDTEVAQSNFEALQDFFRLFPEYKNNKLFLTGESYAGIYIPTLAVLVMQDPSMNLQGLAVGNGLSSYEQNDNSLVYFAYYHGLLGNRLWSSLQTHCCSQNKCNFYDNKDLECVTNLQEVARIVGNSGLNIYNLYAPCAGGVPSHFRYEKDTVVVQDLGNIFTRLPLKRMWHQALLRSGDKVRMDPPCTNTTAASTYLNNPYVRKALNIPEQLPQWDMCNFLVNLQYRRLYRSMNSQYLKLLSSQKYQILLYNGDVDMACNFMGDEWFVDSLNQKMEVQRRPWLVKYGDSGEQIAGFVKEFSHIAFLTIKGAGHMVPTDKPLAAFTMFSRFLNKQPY
# Assay: Inhibition of human recombinant Myc-His10-tagged cathepsin A expressed in baculovirus infected Sf9 cells using BodipyFL labeled bradykinin as substrate incubated for 15 mins prior to substrate addition measured after 15 mins by fluorimetric analysis
smiles,measurement,value
Cc1ccccc1[C@H](CC(=O)O)NC(=O)c1cc(OC[C@H](O)C(C)(C)C)n(-c2ccccc2F)n1,IC50,5 nM

# Reference: ChEMBL document CHEMBL2169867, “Novel β-amino acid derivatives as inhibitors of cathepsin A” (J Med Chem, 2012)
